Results taken from patent US20140187771A1, “AMORPHOUS SOLID SALTS” (Gilead Sciences, Inc., priority 2011, published 2014).

Test: Hygroscopicity at room temperature (weight gain and visual phase transition after 24 hours at controlled RH)
Format: physicochemical
Details: 55% RH
Protocol: Hygroscopicity of salts of invention were measured by placing 20-50 mg of the sample in an uncapped scintillation vial. The vial was stored at ambient temperature in a Pyrex brand desiccator (VWR, International, CT). […] The relative humidity was confirmed using a digital hygrometer pen (VWR International, CT). An empty scintillation vial was also placed in the desiccator as a control. […] Visual observation of phase transition was also noted.

nicotinate
% weight gain: 2.07%
